Earlier results as cited in publication PMC7931646 (The Journal of Experimental Medicine, 2021).

System: Aβ plaques
Settings: prodromal or mild AD patients, phase 1b vs placebo; ref Sevigny et al., 2016; cited from earlier work

aducanumab: Biogen's anti-Aβ antibody, passive immunization
Aβ plaques by amyloid PET imaging: dose-dependent reduction
